According to US7662936B2, “Mass spectrometry of antibody conjugates” (priority 2004, dated 2010):

Legend:
[1] = Drug remaining conjugated on light and heavy chain fragments in rat plasma samples, LC/MS
[2] = Rat study of trastuzumab-MC-val-cit-PAB-MMAE (Example 8): clinical observations, mortality, body weight; assay type: in vivo, Sprague-Dawley rats; conditions: for changes in body weight by Day 5, group 3 versus group 5: 2105 ug/m^2 MMAE, 12.5 mg/kg (8.7) versus 20.2 mg/kg (5.3), p<0.05; for changes in body weight: groups 2, 4 and 7, comparable amounts of MMAE (840 ug/m^2)
Description: Groups 2 and 3 were administered a preparation of Tr-MC-val-cit-PAB-MMAE with average drug loading of 8.7 MMAE/Tr. Groups 4, 5, and 6 were administered a preparation of Tr-MC-val-cit-PAB-MMAE with average drug loading of 5.3 MMAE/Tr. […] Group 6 received the highest dose of 4209 μg MMAE/m^2.
The dose solutions were administered by a single intravenous bolus tail-vein injection on Study Day 1 at a dose volume of 10 ml/kg. All dose solutions were within 10% of the intended concentration. Body weights of the animals were measured pre-dose on Study Day 1 and daily thereafter. Whole blood was collected into EDTA containing tubes for hematology parameters and complete blood counts. Whole blood was collected into serum separator tubes for clinical chemistry parameters. Blood samples were collected pre-dose on […], and on Study Days 3 and 5. Whole blood was also collected into lithium heparin containing tubes and the plasma was frozen at −70° C. for later analysis.
Two animals in Group 6 administered 40.4 mg/kg trastuzumab-MC-val-cit-PAB-MMAE (5.3, cysteine) were found dead on Study Day 4. The remaining 4 animals in that group were moribund (lethargy and yellow discharges in the urogenital area) and were euthanized and necropsied on Day 4.

[3] = Free drug MMAF in plasma of rats dosed with trastuzumab-MC-vc-PAB-MMAF, LC/MS; conditions: rats dosed 26.12 mg ADC/kg; day 5
[4] = Group 6, 40.4 mg/kg, single iv bolus, 6 female rats

Substance	MMAE per LC (light chain fragments) ([1]; day 4, 20.2 mg ADC/kg) [MMAE per LC]	changes in body weight by Day 5, group 3 versus group 5 [2]	appearance of animals throughout the 5 days on study ([2]; Group 4, 8.06 mg ADC/kg, single iv bolus, 6 female rats)	appearance of animals throughout the 5 days on study ([2]; Group 5, 20.2 mg ADC/kg, single iv bolus, 6 female rats)	animals found dead on Study Day 4 [2, 4]	remaining animals moribund (lethargy and yellow discharges in the urogenital area), euthanized and necropsied on Day 4 [2, 4] [animals]	changes in body weight [2]	appearance of animals throughout the 5 days on study ([2]; Group 2, 5.0 mg ADC/kg, single iv bolus, 6 female rats)	appearance of animals throughout the 5 days on study ([2]; Group 3, 12.5 mg ADC/kg, single iv bolus, 6 female rats)	MMAF per HC (heavy chain fragments) ([1]; day 4, 26.12 mg/kg) [MMAF per HC]	MMAF per LC (light chain fragments) ([1]; day 4, 26.12 mg/kg) [MMAF per LC]	free MMAF in plasma [3] [ng/mL]
trastuzumab-MC-val-cit-PAB-MMAE (5.3 drugs/antibody): preparation of Tr-MC-val-cit-PAB-MMAE with average drug loading of 5.3 MMAE/Tr	0.9	significantly different changes in body weight	appeared healthy	appeared healthy	Two	4	comparable changes in body weight					
trastuzumab-MC-val-cit-PAB-MMAE (8.7 drugs/antibody): preparation of Tr-MC-val-cit-PAB-MMAE with average drug loading of 8.7 MMAE/Tr		significantly different changes in body weight					comparable changes in body weight	appeared healthy	appeared healthy			
trastuzumab-MC-vc-PAB-MMAF with drug loading of 4										0.9	0.4	9.09
